This assay addresses recombinant human NaV1.8 stably transfected HEK cells (Homo sapiens, UniProt Q9Y5Y9). As to the kind of experiment: Compound profiling on NaV1.8, human NaV1.8 cell line, SyncroPatch384PE automated patch clamp assay (Example 102, first set of compounds, Table 16). Here is the method: Compound Profiling on NaV1.8—Human NaV1.8 Cell Line—SyncroPatch384PE Assay
Compounds were tested on recombinant human NaV1.8 stably transfected HEK cells using the SyncroPatch384PE system, an automated patch clamp device. Cells were cultured at 37° C./5% CO2 in DMEM medium supplemented with GlutaMAX I, NEAA 1%, FBS 10% and seeded in T175 flasks. Cells were cultured at 30° C. one day prior to recording sodium currents. On the day of the recordings, cells were detached with 0.05% Trypsin-EDTA, resuspended in serum free DMEM medium and placed into the SyncroPatch384PE 6° C. pre-cooled cell hotel and shaken at 200 rpm. Intracellular solution (IC) contained, in mM: 10, CsCl; 110, CsF; 20, EGTA; 10, HEPES. Extracellular solution (EC) contained, in mM: 140, NaCl; 4, KCl; 5, Glucose; 10, HEPES; 2, CaCl2; 1, MgCl2. Washing solution contained, in mM: 40, NMDG; 100, NaCl; 4, KCl; 10, Glucose; 10, HEPES; 5, CaCl2; 1, MgCl2.
Compounds were tested in triplicate in 0.1% DMSO and 0.030% Pluronic Acid. […] Compounds were then applied by the SynchroPatch into each well and the current was recorded for five minutes in EC, followed by application of tetracaine to achieve full block at the end of the experiment. The potency of the compounds was assessed on two read-outs, resting state block (P1 measurement) or inactivated state block (P2 measurement) to obtain IC50 values. […]
(In general: The patch-clamp technique gives a direct electrical read-out from membranes.)

By UniProt entry, the sequences of proteins in these tests, tags left out.
UniProt Q9Y5Y9, whole entry: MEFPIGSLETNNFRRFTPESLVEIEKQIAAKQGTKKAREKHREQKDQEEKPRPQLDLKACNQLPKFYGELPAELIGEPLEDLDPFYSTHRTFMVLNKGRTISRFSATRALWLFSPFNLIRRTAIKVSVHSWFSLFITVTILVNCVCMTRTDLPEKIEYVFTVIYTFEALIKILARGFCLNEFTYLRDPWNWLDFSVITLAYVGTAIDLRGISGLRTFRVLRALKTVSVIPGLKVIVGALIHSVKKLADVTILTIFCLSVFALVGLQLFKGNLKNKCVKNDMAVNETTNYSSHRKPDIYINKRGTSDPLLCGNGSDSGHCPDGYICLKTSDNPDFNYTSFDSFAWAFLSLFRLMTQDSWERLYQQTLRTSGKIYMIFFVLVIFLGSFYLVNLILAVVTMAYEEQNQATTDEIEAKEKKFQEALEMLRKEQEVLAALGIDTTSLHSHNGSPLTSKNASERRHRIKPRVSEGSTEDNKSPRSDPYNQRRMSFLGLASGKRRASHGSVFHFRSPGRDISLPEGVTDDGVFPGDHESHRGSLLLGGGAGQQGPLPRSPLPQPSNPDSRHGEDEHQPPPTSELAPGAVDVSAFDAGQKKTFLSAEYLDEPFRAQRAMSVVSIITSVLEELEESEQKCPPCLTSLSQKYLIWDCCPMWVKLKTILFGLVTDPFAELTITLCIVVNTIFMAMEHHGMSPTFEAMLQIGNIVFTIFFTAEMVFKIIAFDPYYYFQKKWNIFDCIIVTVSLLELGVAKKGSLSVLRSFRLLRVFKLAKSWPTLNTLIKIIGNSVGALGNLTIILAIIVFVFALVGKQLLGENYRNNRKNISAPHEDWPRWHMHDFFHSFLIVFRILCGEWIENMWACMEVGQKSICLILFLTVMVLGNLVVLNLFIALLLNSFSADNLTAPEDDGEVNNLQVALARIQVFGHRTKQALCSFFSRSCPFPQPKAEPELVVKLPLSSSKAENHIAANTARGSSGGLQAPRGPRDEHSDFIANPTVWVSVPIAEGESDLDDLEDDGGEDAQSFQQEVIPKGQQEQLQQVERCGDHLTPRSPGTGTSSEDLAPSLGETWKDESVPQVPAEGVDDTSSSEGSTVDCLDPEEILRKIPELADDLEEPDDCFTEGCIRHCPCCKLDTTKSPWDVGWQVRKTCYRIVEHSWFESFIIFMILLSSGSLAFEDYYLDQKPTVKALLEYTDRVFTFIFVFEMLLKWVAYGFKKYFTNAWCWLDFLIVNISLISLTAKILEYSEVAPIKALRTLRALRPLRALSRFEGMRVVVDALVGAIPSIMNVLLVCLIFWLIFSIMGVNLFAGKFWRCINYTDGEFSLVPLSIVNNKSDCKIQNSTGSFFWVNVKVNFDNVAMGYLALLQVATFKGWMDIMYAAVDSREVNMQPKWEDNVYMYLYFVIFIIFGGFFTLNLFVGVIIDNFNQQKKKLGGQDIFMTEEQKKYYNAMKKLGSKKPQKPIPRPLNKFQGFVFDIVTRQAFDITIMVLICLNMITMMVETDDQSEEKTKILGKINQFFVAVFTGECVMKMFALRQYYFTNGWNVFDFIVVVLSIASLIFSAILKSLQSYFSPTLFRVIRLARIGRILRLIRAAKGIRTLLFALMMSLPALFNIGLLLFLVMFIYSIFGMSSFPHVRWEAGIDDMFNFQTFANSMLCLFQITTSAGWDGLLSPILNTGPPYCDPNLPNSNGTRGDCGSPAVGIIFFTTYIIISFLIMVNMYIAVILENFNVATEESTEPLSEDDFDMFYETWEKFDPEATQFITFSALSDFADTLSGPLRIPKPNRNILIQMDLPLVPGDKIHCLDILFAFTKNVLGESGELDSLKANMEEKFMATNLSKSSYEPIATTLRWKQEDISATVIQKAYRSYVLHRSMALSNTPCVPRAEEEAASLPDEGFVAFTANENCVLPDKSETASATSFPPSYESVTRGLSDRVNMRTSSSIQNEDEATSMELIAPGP

1 molecule from US20240336574A1 (LATIGO BIOTHERAPEUTICS, INC., priority 2021, published 2024) can be followed below.

Structures are written as SMILES. Where two headings read alike, the source gives them in different places.

In the case of `COc1c(Oc2ncc(Br)cc2C(=O)Nc2ccc(C(N)=O)cc2)ccc(F)c1F` [Compound 1569, 5-bromo-N-(4-carbamoylphenyl)-2-(3,4-difluoro-2-methoxy-phenoxy)pyridine-3-carboxamide], the IC50 reads like this: (read-out: P1IC50, resting state block (P1 measurement), human NaV1.8 HEK cells, Table 16 (first set of compounds)) less than 20 nM; (read-out: P2IC50, inactivated state block (P2 measurement), human NaV1.8 HEK cells, Table 16 (first set of compounds)) less than 20 nM.
